Assay results reported in patent US20250025411A1, “READILY SOLUBLE AND THERMOSTABLE GLUCAGON FORMULATIONS AND DELIVERY FOR MINI-DOSING AND CLOSED -LOOP PROPHYLACTIC TREATMENT OF HYPOGLYCEMIA” (Massachusetts Institute of Technology, priority 2023, published 2025).

Assay: High throughput screening of water-soluble solid excipients for glucagon dissolution
Assay type: physicochemical
Details: for Fold change vs. PBS Avg.: 30-minute incubation in pH 7.4 PBS containing 1 mg/mL excipient

Row | SMILES | Fold change vs. PBS Avg. (37° C.) | Glucagon concentration Avg. (solubilized glucagon after 30-minute incubation of lyophilized glucagon in pH 7.4 PBS containing 1 mg/mL excipient, 37° C.) | enhancement of glucagon dissolution (statistical significance compared to no excipient) (30-minute incubation in pH 7.4 PBS at 37° C.)
1 | OC[C@H]1O[C@@H]2O[C@H]3[C@H](O)[C@@H](O)[C@@H](O[C@H]4[C@H](O)[C@@H](O)[C@@H](O[C@H]5[C@H](O)[C@@H](O)[C@@H](O[C@H]6[C@H](O)[C@@H](O)[C@@H](O[C@H]7[C@H](O)[C@@H](O)[C@@H](O[C@H]8[C@H](O)[C@@H](O)[C@@H](O[C@H]9[C@H](O)[C@@H](O)[C@@H](O[C@H]1[C@H](O)[C@H]2O)O[C@@H]9CO)O[C@@H]8CO)O[C@@H]7CO)O[C@@H]6CO)O[C@@H]5CO)O[C@@H]4CO)O[C@@H]3CO [y-Cyclodextrin] | 1.30 fold | 0.28 mg/mL | 
2 | CNC[C@H](O)[C@@H](O)[C@H](O)[C@H](O)CO [Meglumine] | 6.13 fold |  | successfully enhanced the dissolution of glucagon
